A word on the Ki: it is the dissociation constant of the complex between target and ligand, obtained from inhibition or displacement.

Sequences of proteins named here, by UniProt entry; tags and fusion partners are left off.
UniProt P35372, whole entry: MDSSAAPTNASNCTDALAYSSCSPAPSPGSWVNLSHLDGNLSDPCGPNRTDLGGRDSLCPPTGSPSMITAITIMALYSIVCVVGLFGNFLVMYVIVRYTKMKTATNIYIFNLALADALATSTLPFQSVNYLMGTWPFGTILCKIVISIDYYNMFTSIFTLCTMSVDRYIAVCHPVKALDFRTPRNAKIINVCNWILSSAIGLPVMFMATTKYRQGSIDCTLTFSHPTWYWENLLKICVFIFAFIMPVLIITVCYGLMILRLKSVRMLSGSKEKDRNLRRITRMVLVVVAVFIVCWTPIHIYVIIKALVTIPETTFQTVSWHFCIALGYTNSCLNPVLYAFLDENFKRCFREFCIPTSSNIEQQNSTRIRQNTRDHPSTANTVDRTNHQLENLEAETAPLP

The text below walks through data of patent publication US10577360B2, “Arylamide derivatives having multimodal activity against pain” (ESTEVE PHARMACEUTICALS, S.A., priority 2016, dated 2020).

In the experiment the target is human μ-opioid receptor (Homo sapiens (Human), UniProt P35372). The experiment in a line: Human μ-opioid receptor radioligand assay ([3H]-DAMGO binding). The settings on record: read-out: μ (Ki), transfected CHO-K1 cell membranes.

Structures are written as SMILES.

In the case of `Cc1nnc(-c2cccc(-n3ccc(N(C(=O)c4cccc(O)c4)C4CCNCC4)n3)c2)o1`, the inhibition constant Ki was greater than 500 nM. Next, `Cc1nnc(-c2cccc(-n3ccc(N(C(=O)c4cccc(O)c4)C4C[C@@H](C)N[C@@H](C)C4)n3)c2)o1` (stereo partly shown): greater than 500 nM; `CN1CCCC(N(C(=O)c2cccs2)c2ccn(-c3ccccc3)n2)CC1` (stereo not shown) [Example 39, N-(1-Methylazepan-4-yl)-N-(1-phenyl-1H-pyrazol-3-yl)thiophene-2-carboxamide]: greater than 500 nM; `O=C(c1cccs1)N(c1ccn(-c2ccccc2)n1)C1CCCNC1` (stereo not shown) [Example 53, N-(1-Phenyl-1H-pyrazol-3-yl)-N-(piperidin-3-yl)thiophene-2-carboxamide]: greater than 500 nM.

Regarding `O=C(c1cccs1)N(CCNCc1ccccc1)c1ccn(-c2ccccc2)n1` [Example 55, N-[2-(Benzylamino)ethyl]-N-(1-phenyl-1H-pyrazol-3-yl)thiophene-2-carboxamide], the Ki was less than 100 nM. Next, `O=C(c1cccs1)N(CCCNCc1ccccc1)c1ccn(-c2ccccc2)n1` [Example 56, N-[3-(Benzylamino)propyl]-N-(1-phenyl-1H-pyrazol-3-yl)thiophene-2-carboxamide]: less than 100 nM; `CNCCN(C(=O)c1cccs1)c1ccn(-c2ccccc2)n1` [Example 57, N-[2-(Methylamino)ethyl]-N-(1-phenyl-1H-pyrazol-3-yl)thiophene-2-carboxamide]: less than 100 nM; `CN(CCN(C(=O)c1cccs1)c1ccn(-c2ccccc2)n1)Cc1ccccc1` [Example 61, N-{2-[Benzyl(methyl)amino]ethyl}-N-(1-phenyl-1H-pyrazol-3-yl)thiophene-2-carboxamide]: less than 100 nM.

Take `CN(CCCN(C(=O)c1cccs1)c1ccn(-c2ccccc2)n1)Cc1ccccc1` [Example 62, N-{3-[Benzyl(methyl)amino]propyl}-N-(1-phenyl-1H-pyrazol-3-yl)thiophene-2-carboxamide]: the Ki is less than 100 nM.

As for `CN1CCCC(N(C(=O)c2cccs2)c2ccn(-c3ccccc3)n2)C1` (stereo not shown) [Example 67, N-(1-Methylpiperidin-3-yl)-N-(1-phenyl-1H-pyrazol-3-yl)thiophene-2-carboxamide], the Ki was greater than 500 nM. Next, `CCNCCN(C(=O)c1cccs1)c1ccn(-c2ccccc2)n1` [Example 68, N-[2-(Ethylamino)ethyl]-N-(1-phenyl-1H-pyrazol-3-yl)thiophene-2-carboxamide]: 100 to 500 nM. Turning to `CN(Cc1ccccc1)C1CCC(N(C(=O)c2cccs2)c2ccn(-c3ccccc3)n2)CC1` (stereo not shown) [Example 128, N-{4-[Benzyl(methyl)amino]cyclohexyl}-N-(1-phenyl-1H-pyrazol-3-yl)thiophene-2-carboxamide], the Ki is 100 to 500 nM.

With `Cc1nnc(-c2cccc(-n3ccc(N(C(=O)c4cccs4)[C@H]4CC[C@H](N(C)Cc5ccccc5)CC4)n3)c2)o1` [Example 151, N-{(1r,4r)-4-[Benzyl(methyl)amino]cyclohexyl}-N-{1-[3-(5-methyl-1,3,4-oxadiazol-2-yl)phenyl]-1H-pyrazol-3-yl}thiophene-2-carboxamide], the Ki is greater than 500 nM. As for `Cc1nnc(-c2cccc(-n3ccc(N(C(=O)c4cccs4)[C@H]4CC[C@@H](N(C)Cc5ccccc5)CC4)n3)c2)o1` [Example 152, N-{(1s,4s)-4-[Benzyl(methyl)amino]cyclohexyl}-N-{1-[3-(5-methyl-1,3,4-oxadiazol-2-yl)phenyl]-1H-pyrazol-3-yl}thiophene-2-carboxamide], the Ki is less than 100 nM. Next, `Cc1nnc(-c2cccc(-n3ccc(N(C(=O)c4cccc(O)c4)[C@H]4CC[C@H](N(C)Cc5ccccc5)CC4)n3)c2)o1` [Example 153, N-{(1r,4r)-4-[Benzyl(methyl)amino]cyclohexyl}-3-hydroxy-N-{1-[3-(5-methyl-1,3,4-oxadiazol-2-yl)phenyl]-1H-pyrazol-3-yl}benzamide]: less than 100 nM. The same measure for `Cc1nnc(-c2cccc(-n3ccc(N(C(=O)c4cccc(O)c4)[C@H]4CC[C@@H](N(C)Cc5ccccc5)CC4)n3)c2)o1` [Example 154, N-{(1s,4s)-4-[Benzyl(methyl)amino]cyclohexyl}-3-hydroxy-N-{1-[3-(5-methyl-1,3,4-oxadiazol-2-yl)phenyl]-1H-pyrazol-3-yl}benzamide]: less than 100 nM.
